Assay results: PubChem BioAssay (Tox21)
Values joined by “and” are separate entries in the source; they are usually repeats but may differ in a detail not shown here. Equal entries are not always repeated. The list shows a part of the results, in another mix than the full data. Results filed as inconclusive are left out. Active and inactive are the calls of the source. Calls follow the shape of the full dose curve.

Sequences of proteins named here, by UniProt entry; tags and fusion partners are left off.
UniProt P22303, whole entry: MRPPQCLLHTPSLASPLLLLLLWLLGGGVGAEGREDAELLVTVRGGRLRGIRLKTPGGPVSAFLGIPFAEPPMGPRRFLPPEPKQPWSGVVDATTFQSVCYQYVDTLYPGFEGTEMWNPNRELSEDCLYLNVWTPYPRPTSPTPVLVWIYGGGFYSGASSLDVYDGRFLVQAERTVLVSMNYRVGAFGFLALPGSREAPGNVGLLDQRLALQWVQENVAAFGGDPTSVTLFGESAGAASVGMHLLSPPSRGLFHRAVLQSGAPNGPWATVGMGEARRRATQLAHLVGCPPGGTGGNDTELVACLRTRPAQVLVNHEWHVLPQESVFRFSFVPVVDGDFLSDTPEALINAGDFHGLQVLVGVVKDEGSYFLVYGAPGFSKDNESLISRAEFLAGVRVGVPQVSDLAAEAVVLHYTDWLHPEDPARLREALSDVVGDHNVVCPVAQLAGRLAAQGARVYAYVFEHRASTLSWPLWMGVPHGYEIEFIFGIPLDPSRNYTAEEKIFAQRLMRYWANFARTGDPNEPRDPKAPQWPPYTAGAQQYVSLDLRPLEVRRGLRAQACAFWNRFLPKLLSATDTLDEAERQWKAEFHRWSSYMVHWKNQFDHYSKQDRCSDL

The molecules below were run against Acetylcholinesterase (Homo sapiens) (UniProt P22303) (assay: Acetylcholinesterase (AChE) small molecule antagonists: colormetric cell-based qHTS assay (AID 1347395; also: nearly all actives have a fitted effect of over 30% in size)). Conditions: SH-SY5Y cells AChE activity, colorimetric (Ellman); series mostly up to 115 µM; activity, negative = inhibition: at the top concentration.
Description: National Center for Advancing Translational Sciences [NCATS]
Division of Preclinical Innovation [DPI]
U.S. Environmental Protection Agency [EPA]
National Institutes of Environmental Health Sciences [NIEHS]
National Toxicology Program [NTP]
U.S. Food and Drug Administration [FDA]
Acetylcholinesterase (AChE) is the primary cholinesterase in the body that hydrolyzes a key neurotransmitter, acetylcholine. Inhibition of AChE activity can lead to neurotoxicity. The known inhibitors include organophosphorous pesticides (OP), chemical warfare agents, drugs, and various phytochemicals.
A homogenous cell-based assay using the Amplite Colormetric acetylcholinesterase assay kit (AAT Bioquest, Sunnyvale, CA) was used to evaluate the chemicals in the Tox21 10K library that inhibit AChE activity. The assay uses 5, 5-dithiobis-(2-nitrobenzoic acid) (DTNB) to quantify the thiocholine produced from the hydrolysis of acetylthiocholine by AChE from the SH-SY5Y cells.
Tox21 Assay Protocol Summary:
For the cell-based AChE assay, 2,000 SH-SY5Y cells in 4 uL/well were dispensed into black, clear-bottom 1536-well plates using a Multidrop Combi dispenser (Thermo Scientific, MA). The assay plates were incubated overnight at 37 C to allow cells to attach to the wells, followed by the transfer of 23 nL of compound or DMSO (vehicle control) by a Pintool Station (Wako Automation, CA). The plates were incubated for 30 min at 37 C and 5% CO2, followed by the addition of 4 uL of detection cocktail solution (DTNB, acetylthiocholine) into each well using a Flying Reagent Dispenser (Beckman Coulter, CA) and then 90 min incubation at 37 C.
% is scaled to controls: 0 for no effect and ±100 for the full control effect; potency is read from the fitted curve at half-maximal effect.

For Nc1cc([N+](=O)[O-])cc([N+](=O)[O-])c1O, which “activity, negative = inhibition” value is on record?
Its value is inactive: 12%.

How did the Potency turn out when Cc1ccc([N+](=O)[O-])c([N+](=O)[O-])c1 was run?
The Potency was active: 40.8 µM and active: 39.9 µM.

ClCCNCCCl was tested. Which “activity, negative = inhibition” value did it give?
Its value is inactive: 4.27%.

For CC(C)N(CCO)C(C)C, which “activity, negative = inhibition” value is on record?
The value was inactive: -4.14%.

With OCCSCCO as the molecule, how does the Potency read?
Its Potency is “inactive”.

CCOC(=O)N1CCC(=O)CC1 was tested. Which “activity, negative = inhibition” value did it give?
The value was inactive: 3.35% [at 52.9 µM].

ClCCOP(OCCCl)OCCCl was tested. Which Potency did it give?
The Potency was “inactive”.

Which “activity, negative = inhibition” value does the source give for CCC(=O)N(c1ccccc1)C1CCNCC1 here?
The value was inactive: 1.54% [at 52.9 µM].

For [NH4+].[O-][Cl+3]([O-])([O-])[O-], which Potency is on record?
The Potency was “inactive”.

For CC(C)OP(OC(C)C)OC(C)C, which “activity, negative = inhibition” value is on record?
The value was inactive: -10.8%.

With CN(C)CCCl as the molecule, how does the “activity, negative = inhibition” value read?
The value was inactive: 2.78%.

For COP(C)(=O)OC, which Potency is on record?
Its Potency is “inactive”.

Which “activity, negative = inhibition” value does the source give for N#CBr here?
The value was inactive: 1.84%.

COc1ccc([N+](=O)[O-])cc1[N+](=O)[O-] was tested. Which Potency did it give?
Its Potency is active: 39.9 µM.

With CCOP(=O)(Cl)Cl as the molecule, how does the Potency read?
The Potency was “inactive”.

Which Potency does the source give for Cc1ccc([N+](=O)[O-])cc1[N+](=O)[O-] here?
Its Potency is active: 55.6 µM and active: 39.9 µM.

Which “activity, negative = inhibition” value does the source give for O=[N+]([O-])OCC(CO[N+](=O)[O-])(CO[N+](=O)[O-])CO[N+](=O)[O-] here?
The value was inactive: -4.21%.

For CP(=O)(O)OCCC[Si](O)(O)O, which “activity, negative = inhibition” value is on record?
Its value is inactive: -0.498%.

For O=[N+]([O-])[O-].[NH4+], which Potency is on record?
Its Potency is “inactive”.

For CCOP(=O)(CC)OCC, which “activity, negative = inhibition” value is on record?
Its value is inactive: 3.08%.

How did the “activity, negative = inhibition” value turn out when CCN(CC)CCCl was run?
Its value is inactive: 2.6%.

For N=C(N)N[N+](=O)[O-], which “activity, negative = inhibition” value is on record?
The value was inactive: 4.76%.
